Reference: US7985594B2, “Biradical polarizing agents for dynamic nuclear polarization” (Massachusetts Institute of Technology, priority 2006, dated 2011)

Test: Solubility in aqueous media
Format: physicochemical
From the text: In contrast, BT2E is insoluble in all of these media.

bis-TEMPO-2-ethyleneglycol [BT2E]
insoluble: solubility in 200 mM salt (200 mM salt, solvent conditions common for protein samples) | solubility in glycerol/water (glycerol/water (6:4 w/w)) | solubility in water (water)
